Measured values reported in patent US6444684B1 (priority 1993, dated 2002).

System: K/1-NRKE tumor (ras^K-transformed NRKE cells)
Experiment: In vivo activity against K/1-NRKE tumor xenograft in nude mice

7-N-ACETYLDEMETHYLLAVENDAMYCIN ISOAMYL ESTER
Number Dead Number Treated (150 Mg/Kg/Day IP once daily for 8 days): 0/7 | Number Dead Number Treated (300 Mg/Kg/Day IP once daily for 8 days): 0/7 | toxicity in tumor-bearing nude mice (in words) (even at doses up to 300 mg/kg/day): little or no toxicity
